Test [1] deals with T1, GsLDH (Geobacillus stearothermophilus, UniProt P00344). As to conditions: fluorescence spectroscopy, both in the presence and absence of FBP, ref Clarke, Atkinson, et al., 1985; cited from earlier work.
The target in test [2] is T1, GsLDH. Put plainly: Isothermal titration calorimetry of cofactor binding to GsLDH. As to conditions: WT, presence of FBP, 30°C. On the technique in general: Isothermal titration calorimetry measures the heat released or taken up as one component is titrated into another.

By UniProt entry, the sequences of proteins in these tests, tags left out. Where a name states a change or a piece, a line headed by the entry shows the natural chain unless it says otherwise.
UniProt P00344: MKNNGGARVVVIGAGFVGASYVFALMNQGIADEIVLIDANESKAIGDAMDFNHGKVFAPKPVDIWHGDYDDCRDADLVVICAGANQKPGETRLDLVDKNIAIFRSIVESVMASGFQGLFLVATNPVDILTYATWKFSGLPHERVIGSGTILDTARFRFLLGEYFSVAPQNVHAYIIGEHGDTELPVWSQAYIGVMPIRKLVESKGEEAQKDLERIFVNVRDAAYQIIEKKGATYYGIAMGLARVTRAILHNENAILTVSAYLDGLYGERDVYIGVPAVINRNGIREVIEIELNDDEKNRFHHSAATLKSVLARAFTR

Like-named read-outs stand apart in the source and are kept apart here.

Broadly, the Kd is the free concentration of one partner at which half of the binding sites on the other are occupied at equilibrium, for simple one-to-one binding. As for “reduced nicotinamide adenine dinucleotide [NADH]”, the values for the Kd at GsLDH [1] and at GsLDH [2] were 1.5 to 2 µM and 1.2 µM, respectively.
